Measured values as given in US10731222B2 (RNA Diagnostics Inc., priority 2013, dated 2020).

Key:
[1] = system: breast cancer T2-4, N 0-1, M0; assay: Early response studies: RNA Disruption (RDI) 15 days after initiation of therapy; assay type: in vivo, human
Excerpt: The Limit of Detection for RDI s RDI=0.3. RDI=1.5, 5 times the Level of Detection, was used as a provisional baseline cut off between nonresponders and responders.

tumour biopsy samples = assay: Maximal RDI of tumour biopsies before and after the first cycle of neo-adjuvant therapy; assay type: in vivo, human; details: maximal RDI per tumour sample
Procedure: Biopsy samples before and after a treatment dose were obtained from patients undergoing neo-adjuvant therapy with Trastuzumab. RNA was isolated and analyzed using the Agilent Bioanalyzer. Electropherograms were analyzed using the methods 100 and 400 and the maximal RDI score was graphed for each tumour sample at each time-point.
Biopsy samples were obtained from patients undergoing neo-adjuvant therapy with Zometa. RNA was isolated and analyzed using the Agilent Bioanalyzer. Electropherograms were analyzed using the methods 100 and 400 and the maximal RDI score was graphed for each tumour sample at each time-point.

Trastuzumab: monoclonal antibody that targets HER2/neu receptor
RDI Range, Responding Patients [1]: 1.6-2.3 | RDI values after the first cycle (tumour biopsy samples): increased in some patients
